Laboratory results from paper PMC4523931, “Modulation of Aβ42 in vivo by γ-secretase modulator in primates and humans” (Alzheimer's Research & Therapy, 2015).

Experiment: in vivo
Settings: female, cynomolgus monkey, CSF and plasma, po, 100 mg/kg, 100 mg/kg oral

Measured: Kp

CC(C)Cc1ccc(C(C)C(=O)O)cc1 (stereo not drawn) [ibuprofen]
~0.01: CSF:plasma ratio, monkey, from AUC 0 to 8 h | Cmax total in CSF as share of Cmax total in plasma, monkey | brain penetration estimated from the CSF to plasma ratio, monkeys
